Drawing on ChEMBL document CHEMBL2029225, “Synthesis of marine-derived 3-alkylpyridinium alkaloids with potent antiprotozoal activity” (ACS Med Chem Lett, 2011), this text covers EC50 for 1 compound.

pEC50: −log10 of the molar value.

This assay relates to HEK-293T. In words: Cytotoxicity against human HEK293T cells after 72 hrs by alamar blue assay. Format: cell-based. A general note: Resazurin is reduced to fluorescent resorufin, in cell work by metabolically active cells.

As to `O=[As]c1ccccc1` (stereo unspecified), the pEC50 (in general, −log10 of the EC50, conventionally taken in molar units) was 5.19.
